PubChem BioAssay (NCI)
Where “and” joins values, the source holds several entries; their conditions need not be identical. Equal values may be shown once.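 48-hour exposure; five concentrations; linearly interpolated endpoints. The concentration for 50% growth inhibition is given as GI50. At the TGI there is no net growth.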

How the values were obtained:
Assay in all cases: NCI tumour cell line growth inhibition, 48 h
MCF7 breast = tested on: MCF7 breast
SR leukemia = tested on: SR leukemia
COLO 205 colon = tested on: COLO 205 colon
NCI-H226 lung = tested on: NCI-H226 lung
DU-145 prostate = tested on: DU-145 prostate
SF-539 CNS = tested on: SF-539 CNS
HOP-92 NSCLC = tested on: HOP-92 NSCLC
SK-MEL-5 melanoma = tested on: SK-MEL-5 melanoma
RXF 393 renal = tested on: RXF 393 renal
UO-31 renal = tested on: UO-31 renal
HCT-116 colon = tested on: HCT-116 colon
NCI-H23 lung = tested on: NCI-H23 lung
TK-10 renal = tested on: TK-10 renal
K-562 leukemia = tested on: K-562 leukemia
A498 renal = tested on: A498 renal
MALME-3M melanoma = tested on: MALME-3M melanoma
SNB-75 CNS = tested on: SNB-75 CNS
MDA-MB-435 = tested on: MDA-MB-435
M19-MEL melanoma = tested on: M19-MEL melanoma
MDA-N = tested on: MDA-N
XF 498 CNS = tested on: XF 498 CNS
KM20L2 colon = tested on: KM20L2 colon
NCI-H322M lung = tested on: NCI-H322M lung
BT-549 breast = tested on: BT-549 breast
NCI/ADR-RES ovarian = tested on: NCI/ADR-RES ovarian
UACC-257 melanoma = tested on: UACC-257 melanoma
SNB-19 CNS = tested on: SNB-19 CNS
HT29 colon = tested on: HT29 colon
KM12 colon = tested on: KM12 colon
HCC-2998 colon = tested on: HCC-2998 colon
SK-OV-3 ovarian = tested on: SK-OV-3 ovarian
DMS 273 small cell lung = tested on: DMS 273 small cell lung
ACHN renal = tested on: ACHN renal
OVCAR-3 ovarian = tested on: OVCAR-3 ovarian
DLD-1 colon = tested on: DLD-1 colon
EKVX NSCLC = tested on: EKVX NSCLC
SF-268 CNS = tested on: SF-268 CNS
SW-620 colon = tested on: SW-620 colon
NCI-H522 lung = tested on: NCI-H522 lung
HS 578T breast = tested on: HS 578T breast
OVCAR-4 ovarian = tested on: OVCAR-4 ovarian
P388 leukemia = tested on: P388 leukemia
DMS 114 small cell lung = tested on: DMS 114 small cell lung
HOP-62 NSCLC = tested on: HOP-62 NSCLC
MOLT-4 leukemia = tested on: MOLT-4 leukemia
PC-3 prostate = tested on: PC-3 prostate
OVCAR-8 ovarian = tested on: OVCAR-8 ovarian
HL-60(TB) leukemia = tested on: HL-60(TB) leukemia
P388/ADR leukemia = tested on: P388/ADR leukemia
CCRF-CEM leukemia = tested on: CCRF-CEM leukemia

SMILES: CC1=C[C@H]2O[C@@H]3C[C@H]4OC(=O)/C=C\C=C\[C@H]([C@@H](C)O)OC[C@H](O)[C@@]5(C)O[C@@H]5C(=O)OC[C@@]2(C[C@H]1O)[C@]4(C)C31CO1 (stereo not given in full)
- GI50 (MCF7 breast): 31.8 nM
- TGI (MCF7 breast): 88.2 nM
- GI50 (SR leukemia): 15.8 nM
- TGI (SR leukemia): 210 nM
- GI50 (COLO 205 colon): 40.3 nM
- TGI (COLO 205 colon): 96.3 nM
- GI50 (NCI-H226 lung): 16 nM and 32.5 nM
- TGI (NCI-H226 lung): 46.9 nM and 75.2 nM
- GI50 (DU-145 prostate): 268 nM
- TGI (DU-145 prostate): 793 nM
- GI50 (SF-539 CNS): 22.5 nM and 32.5 nM
- TGI (SF-539 CNS): 62.5 nM and 86.7 nM
- GI50 (HOP-92 NSCLC): 30 nM and 48.8 nM
- TGI (HOP-92 NSCLC): 225 nM and 359 nM
- GI50 (SK-MEL-5 melanoma): 14.9 nM and 21.3 nM
- TGI (SK-MEL-5 melanoma): 42.5 nM and 42.4 nM
- GI50 (RXF 393 renal): < 10 nM and 31.2 nM
- TGI (RXF 393 renal): 16.7 nM and 88.6 nM
- GI50 (UO-31 renal): 502 nM and 326 nM
- TGI (UO-31 renal): 2400 nM and 1470 nM
- GI50 (HCT-116 colon): 28.8 nM and 43.9 nM
- TGI (HCT-116 colon): 161 nM and 176 nM
- GI50 (NCI-H23 lung): 38.4 nM and 64.8 nM
- TGI (NCI-H23 lung): 215 nM and 237 nM
- GI50 (TK-10 renal): 188 nM
- TGI (TK-10 renal): 977 nM
- GI50 (K-562 leukemia): 28.3 nM and 35.3 nM
- GI50 (A498 renal): 204 nM and 96.4 nM
- TGI (A498 renal): 583 nM and 325 nM
- GI50 (MALME-3M melanoma): 28.6 nM
- TGI (MALME-3M melanoma): 61.1 nM
- GI50 (SNB-75 CNS): 25.4 nM and 39.5 nM
- TGI (SNB-75 CNS): 85 nM and 99.3 nM
- GI50 (MDA-MB-435): 32.7 nM
- TGI (MDA-MB-435): 138 nM
- GI50 (M19-MEL melanoma): 26.5 nM
- TGI (M19-MEL melanoma): 56.8 nM
- GI50 (MDA-N): 29.8 nM
- TGI (MDA-N): 100 nM
- GI50 (XF 498 CNS): 30.9 nM
- TGI (XF 498 CNS): 65.8 nM
- GI50 (KM20L2 colon): 104 nM
- TGI (KM20L2 colon): 524 nM
- GI50 (NCI-H322M lung): 331 nM
- TGI (NCI-H322M lung): 2470 nM
- GI50 (BT-549 breast): 36.9 nM
- TGI (BT-549 breast): 353 nM
- GI50 (NCI/ADR-RES ovarian): 3090 nM
- TGI (NCI/ADR-RES ovarian): 14700 nM
- GI50 (UACC-257 melanoma): 43.6 nM and 59.3 nM
- TGI (UACC-257 melanoma): 366 nM and 226 nM
- GI50 (SNB-19 CNS): 21.4 nM and 46 nM
- TGI (SNB-19 CNS): 82.3 nM and 266 nM
- GI50 (HT29 colon): 66.5 nM
- TGI (HT29 colon): 733 nM
- GI50 (KM12 colon): 39.7 nM and 68 nM
- GI50 (HCC-2998 colon): 35.6 nM
- TGI (HCC-2998 colon): 90.9 nM
- GI50 (SK-OV-3 ovarian): 178 nM and 85 nM
- TGI (SK-OV-3 ovarian): 854 nM and 523 nM
- GI50 (DMS 273 small cell lung): 30.2 nM
- TGI (DMS 273 small cell lung): 80.9 nM
- GI50 (ACHN renal): 338 nM
- TGI (ACHN renal): 3140 nM
- GI50 (OVCAR-3 ovarian): 31.4 nM and 36.9 nM
- TGI (OVCAR-3 ovarian): 204 nM and 113 nM
- GI50 (DLD-1 colon): 37.3 nM
- TGI (DLD-1 colon): 165 nM
- GI50 (EKVX NSCLC): 149 nM and 25.4 nM
- GI50 (SF-268 CNS): 44.7 nM and 72.7 nM
- TGI (SF-268 CNS): 315 nM and 381 nM
- GI50 (SW-620 colon): 82.6 nM and 65 nM
- GI50 (NCI-H522 lung): < 10 nM and 19.4 nM
- TGI (NCI-H522 lung): 28.4 nM
- GI50 (HS 578T breast): 16.6 nM
- TGI (HS 578T breast): 46.7 nM
- GI50 (OVCAR-4 ovarian): 30.1 nM
- TGI (OVCAR-4 ovarian): 60.4 nM
- GI50 (P388 leukemia): 18.6 nM
- TGI (P388 leukemia): 51.6 nM
- GI50 (DMS 114 small cell lung): 17.5 nM
- TGI (DMS 114 small cell lung): 18.6 nM
- GI50 (HOP-62 NSCLC): 50.7 nM
- TGI (HOP-62 NSCLC): 174 nM
- GI50 (MOLT-4 leukemia): < 10 nM and 22.9 nM
- TGI (MOLT-4 leukemia): 585 nM and 272 nM
- GI50 (PC-3 prostate): 118 nM
- TGI (PC-3 prostate): 620 nM
- GI50 (OVCAR-8 ovarian): 211 nM and 68.4 nM
- TGI (OVCAR-8 ovarian): 1390 nM and 241 nM
- GI50 (HL-60(TB) leukemia): 21 nM
- TGI (HL-60(TB) leukemia): 36.1 nM
- GI50 (P388/ADR leukemia): 573 nM
- TGI (P388/ADR leukemia): 2490 nM
- GI50 (CCRF-CEM leukemia): 22.6 nM and 22.2 nM
